From publication PMC9415951 (Viruses, 2022) come the findings set out here.

The experiment has as its target bovine thrombin (Bos taurus, UniProt P00735). Nature of the experiment: Thrombin inhibition assay (chromogenic substrate S-2238). The following applies: time-dependent inhibition. In kind it is biochemical.

Each structure is given as a SMILES string.

Turning to `N=C(N)N1CCC(C(=O)Nc2cccc(OCc3cc(-c4ccc(Cl)s4)on3)c2)CC1` [Compound 3], the Ki is, setting by setting: (incubation time 0 min) 15.96 ± 0.04 µM; (incubation time 15 min) 16.7 ± 0.017 µM.
